{
  "sequences": {"note": "Amino acid sequences for entries named in this document (tags omitted). Residues count along the entry.", "UniProt P56817, 22-454": "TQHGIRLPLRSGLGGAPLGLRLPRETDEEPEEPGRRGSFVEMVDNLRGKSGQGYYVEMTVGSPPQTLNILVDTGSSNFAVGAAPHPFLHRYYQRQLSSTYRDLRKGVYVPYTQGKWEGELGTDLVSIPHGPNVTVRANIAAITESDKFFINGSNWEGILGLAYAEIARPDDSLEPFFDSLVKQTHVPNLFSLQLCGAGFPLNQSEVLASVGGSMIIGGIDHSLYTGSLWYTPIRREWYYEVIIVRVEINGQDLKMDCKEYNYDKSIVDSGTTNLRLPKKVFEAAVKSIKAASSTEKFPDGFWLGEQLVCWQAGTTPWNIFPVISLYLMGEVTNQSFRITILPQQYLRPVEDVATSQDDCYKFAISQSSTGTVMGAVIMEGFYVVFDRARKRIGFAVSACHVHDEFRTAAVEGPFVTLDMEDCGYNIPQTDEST"},
  "source": "patent US9290477B2",
  "about": "“Inhibitors of β-secretase” (Vitae Pharmaceuticals, Inc., priority 2012, dated 2016)",
  "molecular_target": "truncated human beta-secretase, BACE1 (amino acids 1-454) (Homo sapiens (Human), UniProt P56817)",
  "test": "BACE1 Assay (Assay 1), fluorescence quench assay",
  "type": "biochemical",
  "details": "Table 1; pH 4.4, 1 μM substrate peptide; read-out: BACE 1 IC50 nM (Assay 1)",
  "description": "The inhibitory activity of compounds was assessed by a fluorescence quench assay of BACE1 activity using commercially available substrate HiLyte Fluor™488-Glu-Val-Asn-Leu-Asp-Ala-Glu-Phe-Lys-(QXL™ 520)-OH (SEQ ID NO:1) (AnaSpec, San Jose, Calif.) and truncated human beta-secretase, BACE1 (amino acids 1-454) fused to a myc-his tag and secreted from HEK293/BACEect. cells into OptiMEM™ (Invitrogen). The substrate was dissolved at 1 mg/ml in DMSO.\nThe assay was performed in the presence of OptiMEM™ (supernatant collected over 24 h and cleared from cellular debris by centrifugation) containing the ectodomain of BACE1, 25 μl water containing the desired 2-fold concentration of test compound and 2% DMSO, 1 μM substrate peptide, 20 mM NaOAc, pH 4.4, and 0.04% Triton-X100 in a total assay volume of 50 μl in a 384 well plate. […] The reaction was incubated at rt (dark) in an Envision® multilabel reader (Perkin Elmer) and the cleavage of the substrate was recorded as kinetic for 60 min at ex: 485 nm, em: 538 nm. […]\nThe intensity of fluorescence was regressed against time in order to derive velocities of reaction in all 384 wells. […] IC50 values were calculated by fitting percent control vs. test compound concentration using Assay Explorer®.",
  "data": [
    {"smiles": "CO[C@H]1CC[C@@]2(Cc3ccc(Br)cc3C23N=C(C)C(N)=N3)C[C@@H]1C", "note": "(stereo partly shown) [Example 4]", "values": [
      {"measurement": "IC50", "result": 16.3, "unit": "nM"}
    ]}
  ]
}
